The values that follow come from PubChem BioAssay (Tox21).

Protein sequences, listed by entry. Tags and fused reporters are not part of them.
UniProt P14416, whole entry: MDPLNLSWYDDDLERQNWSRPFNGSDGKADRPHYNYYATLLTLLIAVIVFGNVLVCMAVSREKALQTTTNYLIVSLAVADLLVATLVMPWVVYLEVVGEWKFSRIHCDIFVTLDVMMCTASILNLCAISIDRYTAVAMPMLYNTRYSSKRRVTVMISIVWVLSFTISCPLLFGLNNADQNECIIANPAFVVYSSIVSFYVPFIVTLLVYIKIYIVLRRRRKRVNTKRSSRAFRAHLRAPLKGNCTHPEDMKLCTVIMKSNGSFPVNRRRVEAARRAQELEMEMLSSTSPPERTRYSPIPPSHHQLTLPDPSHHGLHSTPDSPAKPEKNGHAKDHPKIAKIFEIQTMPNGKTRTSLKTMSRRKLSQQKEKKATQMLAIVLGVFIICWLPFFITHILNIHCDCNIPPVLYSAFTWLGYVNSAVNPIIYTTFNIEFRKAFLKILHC

Where “and” joins values, the source holds several entries; their conditions need not be identical. Equal entries are not always repeated. The list shows a part of the results, in another mix than the full data. Records with an inconclusive call do not appear. Calls of active or inactive are those of the source. Calls follow the shape of the full dose curve.
% is scaled to controls: 0 for no effect and ±100 for the full control effect.

For one experiment, the target named is D(2) dopamine receptor (Homo sapiens) (UniProt P14416). Nature of the experiment: Dopamine D2 receptor (DRD2) small molecule agonists, cell-based qHTS assay (AID 1963594). Also: nearly all actives have a fitted effect of over 35% in size. To be noted: HEK293-DRD2 cAMP HTRF, agonist mode, 30 min; at 42.5 µM (top of the series). From the text: National Center for Advancing Translational Sciences [NCATS]
Division of Preclinical Innovation [DPI]
U.S. Environmental Protection Agency [EPA]
National Institutes of Environmental Health Sciences [NIEHS]
National Toxicology Program [NTP]
U.S. Food and Drug Administration [FDA]
DRD2 is the D2 subtype of the dopamine receptor, which is coupled to Gi subtype of G protein-coupled receptor. This G protein-coupled receptor inhibits adenylyl cyclase activity. The DRD2-HEK293 cell line stably expressing D2 dopamine receptor can be used for screening agonists and antagonists of interactions between D2 and its ligands. The Hek293-DRD2 cAMP assay is based on HTRF technology. It measures changes of cAMP accumulation in response to Gi coupled GPCR activation or inhibition.
Tox21 Assay Protocol Summary:
DRD2-Hek293 cells were dispensed at 600 cells/3uL/well in 1536-well white plates using a Multidrop Dispenser. After the assay plates were incubated at a 37 C/5% CO2 incubator for 24 h, 1 uL of Ro20-1724 at final concentration of 0.1 mM was transferred to the assay plate by a Flying Reagent Dispenser. Following Ro20-1724 addition, 23 nL of compound dissolved in DMSO, positive controls or DMSO only was added to the assay plates via Wako pintool station. The assay plates were incubated at room temperature for 10 min. Next, 1 uL of NKH477 at 200nM was added into the plates. After the assay plates were incubated at room temperature for an additional 30 min, 2.5 ul/well of cAMP-d2 and 2.5 ul/well of anti-cAMP-cryptate were added respectively into the assay plates using a Flying Reagent Dispenser. The plates were incubated at room temperature for 1 h. The fluorescence intensity in the plates was measured at 340 nm excitation and 665 & 620 nm emission by an Envision plate reader.
On to `OCCSCCO`, for which the activation was inactive: 16.9%.

The same experiment, now with this note: HEK293-DRD2 cAMP HTRF, agonist mode, 30 min; at 92.4 µM (top of the series).
As for `OCCSCCO`, the activation is inactive: 3.86%.

The experiment is the same for the next values; noted with them: HEK293-DRD2 cAMP HTRF, agonist mode, 30 min; at 92.4 µM (top of the series) unless noted.
As to `O=[N+]([O-])[O-].[NH4+]`, the activation was inactive: 2.05% and inactive: 17%.

Take `CCN(CC)CCCl`: the activation is inactive: -1.04%.

Regarding `CCOP(=O)(CC)Oc1ccc([N+](=O)[O-])cc1` (stereo unspecified), the activation is inactive: 13% [at 42.5 µM].

Consider `Cc1ccc([N+](=O)[O-])c([N+](=O)[O-])c1`, for which the activation was inactive: -0.776% and inactive: -7.45%.

Turning to `N=C(N)N[N+](=O)[O-]`, the activation is inactive: -2.78%.

Turning to `CP(=O)(O)OCCC[Si](O)(O)O`, the activation was inactive: 13.9%.

On to `[NH4+].[O-][Cl+3]([O-])([O-])[O-]`, for which the activation is inactive: 1.29% and inactive: -0.0234%.

With `CC(C)N(CCO)C(C)C`, the activation is inactive: -9.6%.

Turning to `C/C1=C2N=C(/C=C3N=C(/C(C)=C4\[N-][C@@](C)([C@@H]5N=C1[C@](C)(CCC(=O)NC[C@@H](C)OP(=O)([O-])O[C@H]1[C@@H](O)[C@@H](n6cnc7cc(C)c(C)cc76)O[C@@H]1CO)[C@H]5CC(N)=O)[C@@](C)(CC(N)=O)[C@@H]4CCC(N)=O)[C@@](C)(CC(N)=O)[C@@H]\3CCC(N)=O)C(C)(C)[C@@H]/2CCC(N)=O.[C-]#N.[Co+3]`, the activation is inactive: 1.97% [at 42.5 µM].

In the case of `Cc1c([N+](=O)[O-])cccc1[N+](=O)[O-]`, the activation is inactive: -2.6% and inactive: -2.06%.

Consider `COc1ccc([N+](=O)[O-])cc1[N+](=O)[O-]`, for which the activation was inactive: -2.09%.

Take `CCOP(=O)(CC)OCC`: the activation was inactive: -3.58%.

As for `COP(C)(=O)OC`, the activation was inactive: 0.809% and inactive: 3.47%.

Regarding `CN(C)CCCl`, the activation is inactive: -0.437%.

Turning to `Cc1ccc([N+](=O)[O-])cc1[N+](=O)[O-]`, the activation is inactive: -10.4%.

`N#CBr`: the activation is inactive: -2.13%.

In the case of `O=[N+]([O-])OCC(CO[N+](=O)[O-])(CO[N+](=O)[O-])CO[N+](=O)[O-]`, the activation was inactive: -3.38%.

On to `O=[N+]([O-])c1cccc([N+](=O)[O-])c1`, for which the activation was inactive: -1.55%.

As to `CC(C)OP(C)(=O)OC(C)C`, the activation was inactive: 1.09% and inactive: -26.1%.
